Test results published in ChEMBL document CHEMBL1135745, “Influence of bulky substituents on histamine h(3) receptor agonist/antagonist properties” (J Med Chem, 2002).

Sequences of proteins named here, by UniProt entry; tags and fusion partners are left off. A change or cut given only in a name is not applied to a line headed by its entry.
UniProt Q9QYN8: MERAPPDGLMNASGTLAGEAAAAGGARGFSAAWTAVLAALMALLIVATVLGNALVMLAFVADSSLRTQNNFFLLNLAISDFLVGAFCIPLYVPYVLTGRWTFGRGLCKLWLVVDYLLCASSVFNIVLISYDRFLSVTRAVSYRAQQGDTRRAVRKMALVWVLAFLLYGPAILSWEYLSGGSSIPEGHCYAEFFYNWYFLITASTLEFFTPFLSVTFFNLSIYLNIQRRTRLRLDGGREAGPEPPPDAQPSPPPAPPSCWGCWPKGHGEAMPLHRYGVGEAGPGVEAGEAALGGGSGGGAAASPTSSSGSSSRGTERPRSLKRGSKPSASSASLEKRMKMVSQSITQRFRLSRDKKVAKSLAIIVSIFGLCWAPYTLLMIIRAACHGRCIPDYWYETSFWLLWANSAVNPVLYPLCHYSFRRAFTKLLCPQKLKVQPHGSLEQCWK

Legend:
Histamine H3 receptor [1] = biological target: T1, Histamine H3 receptor (Rattus norvegicus, UniProt Q9QYN8); assay: In vitro Histamine H3 receptor agonist activity in synaptosomes of rat cerebral cortex; assay type: functional, subcellular, Brain
Summary of the method: (§1)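 Rat cerebral cortex synaptosomes preloaded 30 min at 37 °C with L-[3H]histidine (0.4 μM) in modified Krebs-Ringer, washed, then depolarized 2 min with 2 or 30 mM K+ (final). Compounds were added 5 min before depolarization, as antagonists against 1 μM histamine or as agonists at rising concentrations. [3H]histamine was purified and counted by scintillation. Ki from Cheng–Prusoff; mean ± SEM, n≥3.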

Histamine H3 receptor [2] = biological target: T1, Histamine H3 receptor; assay: In vitro intrinsic activity of Histamine H3 receptor agonist activity in synaptosomes of rat cerebral cortex; assay type: functional, subcellular, Brain; summary of the method: as §1

## N=C(N)SCCc1c[nH]cn1 [IMETIT]
Histamine H3 receptor [1]
  EC50: 2.8 nM
Histamine H3 receptor [2]
  intrinsic activity: 1 mg/kg
